Results reported in PMC12511557, “WEE1 inhibitors synergise with mRNA translation defects via activation of the kinase GCN2” (Nature Communications, 2025).

Chains of the proteins cited; added tags and fusions are not shown. Lines headed by an entry give the natural chain unless they say otherwise; changes in a name come on top.
UniProt Q9P2K8: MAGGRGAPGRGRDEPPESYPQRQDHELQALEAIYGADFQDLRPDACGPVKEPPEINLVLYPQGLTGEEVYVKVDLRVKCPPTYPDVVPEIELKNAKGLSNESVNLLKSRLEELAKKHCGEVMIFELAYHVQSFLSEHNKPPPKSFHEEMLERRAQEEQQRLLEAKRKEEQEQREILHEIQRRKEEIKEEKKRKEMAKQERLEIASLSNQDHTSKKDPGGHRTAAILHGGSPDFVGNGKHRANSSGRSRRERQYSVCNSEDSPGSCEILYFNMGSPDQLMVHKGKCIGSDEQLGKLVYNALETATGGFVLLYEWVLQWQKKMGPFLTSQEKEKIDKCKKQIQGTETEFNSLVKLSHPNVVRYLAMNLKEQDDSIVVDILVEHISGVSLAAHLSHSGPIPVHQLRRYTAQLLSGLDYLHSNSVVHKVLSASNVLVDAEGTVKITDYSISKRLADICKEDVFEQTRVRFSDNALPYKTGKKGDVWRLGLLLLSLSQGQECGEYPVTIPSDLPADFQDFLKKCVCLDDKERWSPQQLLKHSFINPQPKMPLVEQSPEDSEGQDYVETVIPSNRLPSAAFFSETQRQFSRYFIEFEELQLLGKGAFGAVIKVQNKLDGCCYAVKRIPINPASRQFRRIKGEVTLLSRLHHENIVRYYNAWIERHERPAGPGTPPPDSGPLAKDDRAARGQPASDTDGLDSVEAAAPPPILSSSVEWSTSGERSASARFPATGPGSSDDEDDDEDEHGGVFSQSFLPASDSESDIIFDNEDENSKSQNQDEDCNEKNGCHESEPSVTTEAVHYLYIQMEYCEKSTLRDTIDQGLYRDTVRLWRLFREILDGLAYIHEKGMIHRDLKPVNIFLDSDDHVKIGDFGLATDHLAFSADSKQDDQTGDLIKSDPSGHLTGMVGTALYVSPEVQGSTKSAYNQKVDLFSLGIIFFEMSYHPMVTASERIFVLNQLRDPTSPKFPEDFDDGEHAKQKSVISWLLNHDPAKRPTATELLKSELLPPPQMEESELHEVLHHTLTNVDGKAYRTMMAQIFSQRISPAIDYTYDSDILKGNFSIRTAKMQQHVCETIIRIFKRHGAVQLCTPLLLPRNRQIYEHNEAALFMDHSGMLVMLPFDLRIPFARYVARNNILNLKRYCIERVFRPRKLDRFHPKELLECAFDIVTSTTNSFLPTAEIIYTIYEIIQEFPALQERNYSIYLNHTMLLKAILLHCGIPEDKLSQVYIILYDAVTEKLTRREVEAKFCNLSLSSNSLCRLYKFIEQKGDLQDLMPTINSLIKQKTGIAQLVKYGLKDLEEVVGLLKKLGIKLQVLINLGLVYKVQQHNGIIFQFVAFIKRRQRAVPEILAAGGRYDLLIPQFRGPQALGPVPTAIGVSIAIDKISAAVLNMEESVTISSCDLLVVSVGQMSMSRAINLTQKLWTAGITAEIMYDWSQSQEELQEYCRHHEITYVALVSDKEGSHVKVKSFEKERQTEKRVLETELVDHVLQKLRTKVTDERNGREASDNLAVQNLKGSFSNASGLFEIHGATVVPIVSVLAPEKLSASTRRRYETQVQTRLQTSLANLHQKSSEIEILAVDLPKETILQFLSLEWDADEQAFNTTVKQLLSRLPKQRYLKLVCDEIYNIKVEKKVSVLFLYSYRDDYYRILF

Target: GCN2 (Homo sapiens, UniProt Q9P2K8)
Set-up: gene EIF2AK4

## CCOc1cc2ncc(C#N)c(Nc3ccc(OCc4ccccn4)c(Cl)c3)c2cc1NC(=O)/C=C/CN(C)C [Neratinib]
  in vitro GCN2 phosphorylation assay with ATP, western blot (activation); referenc: phosphorylation of GCN2 induced by AZD1775 was comparable to that of the known GCN2 activator, and EGFR inhibitor, Neratinib
